In PubChem BioAssay AID1970 (National Center for Advancing Translational Sciences (NCATS), 2009):
The entries are a selection whose mix differs from that of the whole data set. Records with an inconclusive call do not appear. Activity calls are given as the source filed them. Calls come from the whole dose curve; as a rule, active = well fitted inhibition curve with a large enough effect; inconclusive = small, poorly fitted or top-dose-only effect; inactive = flat fitted curve, though single readings scatter.

Chains of the proteins cited; added tags and fusions are not shown. Lines headed by an entry give the natural chain unless they say otherwise; changes in a name come on top.
UniProt Q9HAZ1: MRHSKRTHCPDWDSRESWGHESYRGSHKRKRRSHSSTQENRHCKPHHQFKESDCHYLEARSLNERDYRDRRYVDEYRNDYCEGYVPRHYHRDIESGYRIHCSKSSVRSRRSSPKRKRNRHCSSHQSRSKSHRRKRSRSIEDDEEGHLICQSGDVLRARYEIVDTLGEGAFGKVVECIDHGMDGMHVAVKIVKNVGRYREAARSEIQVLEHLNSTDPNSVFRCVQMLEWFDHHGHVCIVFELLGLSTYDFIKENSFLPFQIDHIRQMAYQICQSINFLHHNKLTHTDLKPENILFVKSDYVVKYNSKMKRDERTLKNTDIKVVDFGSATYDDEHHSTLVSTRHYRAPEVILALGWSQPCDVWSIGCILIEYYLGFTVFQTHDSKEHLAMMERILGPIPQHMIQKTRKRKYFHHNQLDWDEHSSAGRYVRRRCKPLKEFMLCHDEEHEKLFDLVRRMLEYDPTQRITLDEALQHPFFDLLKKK

Target: Dual specificity protein kinase CLK4 (Homo sapiens) (UniProt Q9HAZ1)
Assay: Confirmation Assay for Inhibitors of CDC-like Kinase 4 (Kinase-Glo Assay)
Settings: recombinant Clk4, Kinase-Glo ATP depletion luminescence
Procedure: NIH Molecular Libraries Probe Production Centers Network [MLPCN] NIH Chemical Genomics Center [NCGC] MLPCN Grant: 1R03MH084827-01 Assay Submitter (PI): Tom Misteli NCGC Assay Overview: Clk4 (Invitrogen, cat# PV3839) was assayed using ATP and the RS repeat peptide (AnaSpec cat # 61722) as substrates. Following the Clk4 reaction, the remaining ATP levels were detected using Promega Kinase-Glo technology wherein the remaining ATP from the kinase reaction is detected using Ultra-Glo luciferase and D-luciferin which generates a bioluminescence signal from the ATP. The positive control for the assay was TG003 (Sigma-Aldrich, cat# 300801-52-9) which has been described as an inhibitor of Clk 4[1].
NCGC Assay Protocol Summary: Two uL/well of substrate-buffer solution (100 uM RS peptide, 1 uM ATP, 25 mM Tris pH7.5, 10 mM MgCl2, 0.5 mM EGTA, 2.5 mM DTT, 0.01% Triton X-100 final concentration) was dispensed into 1536-well, assay plates (Greiner, solid white medium-binding plates) with Aurora Discovery BioRAPTR Flying Reagent Dispenser (FRD; Beckton-Dickenson). Using a Kalypsys pin tool equipped with a 1536-pin tool, 23 nL of compound solution was transferred to the assay plate. […] Luminescence was detected with the ViewLux plate reader (Perkin Elmer, Waltham, MA) after 5 min incubation using a 5 second exposure time and 2x binning.

## c1nc(NCC2CCCC2)c2cc(-c3ccc4c(c3)OCO4)ccc2n1
  Potency: active: 0.0519 µM

## CN(Cc1ncc[nH]1)c1ncnc2ccc(-c3ccc4c(c3)OCO4)cc12
  Potency: active: 0.0654 µM
